Laboratory results from US7550506B2, “Amino acid derived prodrugs of propofol, compositions and uses thereof” (XenoPort, Inc., priority 2004, dated 2009).

Assays:
[1] = substrate 2.0 μM, 37° C.
Procedure: (§1) The stability of propofol prodrugs were evaluated in one or more in vitro systems using a variety of tissue preparations following methods known in the art. Tissues were obtained from commercial sources (e.g., Pel-Freez Biologicals, Rogers, Ark., or GenTest Corporation, Woburn, Mass.). Experimental conditions used for the in vitro studies are described in Table 1 below. Each preparation was incubated with test compound at 37° C. for one hour. Aliquots (50 μL) were removed at 0, 30, and 60 min and quenched with 0.1% trifluoroacetic acid in acetonitrile. Samples were then centrifuged and analyzed by LC/MS/MS (see Example 134 below for method details). Stability of drug conjugates towards specific enzymes (e.g., peptidases, etc.) were also assessed in vitro by incubation with the purified enzyme.

pancreatin = conditions: 1% (w/v) pancreatin, substrate 5.0 μM, pH 7.5, 37° C.
Procedure: as §1
Pancreatin Stability: Stability studies were conducted by incubating conjugate (5 μM) with 1% (w/v) pancreatin (Sigma, P-1625, from porcine pancreas) in 0.025 M Tris buffer containing 0.5 M NaCl (pH 7.5) at 37° C. for 60 min. The reaction was stopped by addition of 2 volumes of methanol. After centrifugation at 14,000 rpm for 10 min, the supernatant was removed and analyzed by LC/MS/MS.

Substance: H-Ala-Thr(γ-OC(O)OPropofol)-OH Hydrochloride [(16)]
- % of Propofol Released from Propofol Prodrugs after 60 min, Human Plasma ([1]; no cofactors): 4%
- % of Propofol Released from Propofol Prodrugs after 60 min, Human Liver S9 (0.5 mg/mL) ([1]; NADPH): 22%
- % of Propofol Released from Propofol Prodrugs after 60 min, Pancreatin (pancreatin): 25%
